This assay concerns the target purified full length human recombinant ERβ (Homo sapiens, UniProt Q92731). In words: ERβ competitive binding assay.

Amino acid sequences for entries named in this document (tags omitted).
UniProt Q92731, whole entry: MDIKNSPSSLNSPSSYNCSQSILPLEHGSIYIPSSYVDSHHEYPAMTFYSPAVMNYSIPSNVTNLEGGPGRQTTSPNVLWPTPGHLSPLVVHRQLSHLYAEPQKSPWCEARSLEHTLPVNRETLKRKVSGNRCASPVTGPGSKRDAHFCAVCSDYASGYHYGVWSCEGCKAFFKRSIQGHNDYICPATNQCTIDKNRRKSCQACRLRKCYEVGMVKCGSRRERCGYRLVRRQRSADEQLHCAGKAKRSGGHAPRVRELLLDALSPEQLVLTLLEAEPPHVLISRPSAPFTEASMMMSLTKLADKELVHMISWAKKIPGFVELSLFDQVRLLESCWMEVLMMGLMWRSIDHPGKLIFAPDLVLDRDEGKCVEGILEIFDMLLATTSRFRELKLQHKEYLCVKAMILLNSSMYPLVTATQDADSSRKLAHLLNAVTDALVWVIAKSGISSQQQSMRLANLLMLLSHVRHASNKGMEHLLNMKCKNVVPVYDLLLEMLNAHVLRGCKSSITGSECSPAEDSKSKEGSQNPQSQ

As for `CC(C)=CCc1c(O)cc(O)c2c(=O)cc(-c3ccc(O)cc3)oc12` [8-PA, 8-Prenylapigenin], the “RBA β/α” value was found to be 2.7.
